We go through five molecules from US10829478B2, “5-[3-[piperazin-1-yl]-3-oxo-propyl]-imidazolidine-2,4-dione derivatives as ADAMTS 4 and 5 inhibitors for treating e.g. osteoarthritis” (Galapagos NV, priority 2016, dated 2020).

Amino acid sequences for entries named in this document (tags omitted). Residues count along the entry.
UniProt Q9UNA0, 262-930: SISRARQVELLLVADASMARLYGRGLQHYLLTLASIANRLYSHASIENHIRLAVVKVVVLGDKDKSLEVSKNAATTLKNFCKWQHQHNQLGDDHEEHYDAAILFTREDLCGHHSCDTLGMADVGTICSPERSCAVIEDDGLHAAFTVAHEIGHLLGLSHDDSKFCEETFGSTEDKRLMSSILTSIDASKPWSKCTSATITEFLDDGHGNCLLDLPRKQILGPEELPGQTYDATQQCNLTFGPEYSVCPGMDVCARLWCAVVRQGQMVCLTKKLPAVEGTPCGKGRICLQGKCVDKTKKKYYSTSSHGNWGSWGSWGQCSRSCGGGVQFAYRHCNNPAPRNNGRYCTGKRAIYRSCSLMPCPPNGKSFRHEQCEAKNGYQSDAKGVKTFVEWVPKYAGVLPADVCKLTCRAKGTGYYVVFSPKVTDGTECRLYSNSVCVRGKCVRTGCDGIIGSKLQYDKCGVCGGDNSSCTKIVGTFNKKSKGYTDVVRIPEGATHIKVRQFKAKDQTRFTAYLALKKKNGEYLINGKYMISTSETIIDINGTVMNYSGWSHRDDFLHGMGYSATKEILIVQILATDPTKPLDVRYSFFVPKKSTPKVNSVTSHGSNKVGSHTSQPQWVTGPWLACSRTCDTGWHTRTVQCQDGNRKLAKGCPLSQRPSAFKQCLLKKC
UniProt P78536, 215-671: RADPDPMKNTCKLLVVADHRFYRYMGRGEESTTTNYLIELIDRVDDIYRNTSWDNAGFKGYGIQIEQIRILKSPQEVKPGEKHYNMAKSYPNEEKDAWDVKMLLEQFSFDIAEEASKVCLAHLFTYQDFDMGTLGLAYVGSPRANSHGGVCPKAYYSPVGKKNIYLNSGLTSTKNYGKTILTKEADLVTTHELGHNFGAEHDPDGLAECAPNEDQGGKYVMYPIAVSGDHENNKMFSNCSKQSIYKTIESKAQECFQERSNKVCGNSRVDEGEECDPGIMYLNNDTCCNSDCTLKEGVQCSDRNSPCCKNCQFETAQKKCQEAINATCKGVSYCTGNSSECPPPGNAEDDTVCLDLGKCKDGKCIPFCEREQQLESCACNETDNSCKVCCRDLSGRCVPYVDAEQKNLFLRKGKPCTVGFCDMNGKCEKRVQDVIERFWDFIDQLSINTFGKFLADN
UniProt Q6TY19, entry or part of it: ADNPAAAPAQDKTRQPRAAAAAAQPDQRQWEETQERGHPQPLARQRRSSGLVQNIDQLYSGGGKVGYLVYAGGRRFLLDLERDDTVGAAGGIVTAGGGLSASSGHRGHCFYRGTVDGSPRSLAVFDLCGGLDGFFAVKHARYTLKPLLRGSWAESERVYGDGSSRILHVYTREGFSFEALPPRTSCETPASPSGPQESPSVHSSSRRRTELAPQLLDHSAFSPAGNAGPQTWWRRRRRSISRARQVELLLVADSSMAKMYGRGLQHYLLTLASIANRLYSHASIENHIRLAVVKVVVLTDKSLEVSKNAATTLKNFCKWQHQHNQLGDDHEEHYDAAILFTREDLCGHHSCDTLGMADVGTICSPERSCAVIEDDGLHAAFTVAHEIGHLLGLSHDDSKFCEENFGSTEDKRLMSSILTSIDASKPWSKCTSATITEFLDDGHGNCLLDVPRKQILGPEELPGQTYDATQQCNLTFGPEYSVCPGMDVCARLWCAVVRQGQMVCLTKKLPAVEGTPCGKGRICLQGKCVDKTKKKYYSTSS

For one experiment, the target named is human ADAMTS-5 (Homo sapiens (Human), UniProt Q9UNA0). The experiment in a line: hADAMTS-5 TBIS-1 cleavage assay, Protocol 3. In kind it is biochemical. To be noted: 90 min at 37° C., read-out: hADAMTS-5 potency IC50.
For a further experiment, the target named is human MMP14 (Homo sapiens (Human), UniProt P50281). Briefly: hMMP14 assay (390 MMP FRET Substrate I). In kind it is biochemical. To be noted: human MMP14 (Biomol), read-out: hMMP-14 potency IC50.
The target of another experiment is human TACE (Homo sapiens (Human), UniProt P78536). Briefly: biochemical.
The next experiment concerns the target rnADAMTS-5 (1-564-6H) (Rattus norvegicus (Rat), UniProt Q6TY19). The experiment in a line: Rat ADAMTS-5 TBIS-1 cleavage assay. Type of experiment: biochemical. To be noted: 120 min at 37° C.; read-out: Rat ADAMTS-5 potency IC50.

Regarding `CCc1cc(N2CCN(C(=O)CCC3(CCC(=O)OC(C)(C)C)NC(=O)NC3=O)C[C@@H]2C)ccc1Cl` (stereo partly drawn) [Cpd 114, tert-butyl 3-[4-[3-[(3S)-4-(4-chloro-3-ethyl-phenyl)-3-methyl-piperazin-1-yl]-3-oxo-propyl]-2,5-dioxo-imidazolidin-4-yl]propanoate], the 50% inhibitory concentration (IC50) at human ADAMTS-5 and at human MMP14 was > 100 nM in each case.

As to `CCc1cc(N2CCN(C(=O)[C@@H](C)C[C@@]3(COC)NC(=O)NC3=O)C[C@@H]2C)ccc1Cl` (stereo in doubt) [Cpd 124, 5-[3-[(3S)-4-(4-chloro-3-ethyl-phenyl)-3-methyl-piperazin-1-yl]-2-methyl-3-oxo-propyl]-5-(methoxymethyl)imidazolidine-2,4-dione], the IC50 on human ADAMTS-5 is 25 to 50 nM; on human TACE it was > 100 nM.

`CC(C)c1cc(N2CCN(C(=O)CC[C@@]3(C)NC(=O)NC3=O)C[C@@H]2C)ccc1Cl` [Cpd 85, (5R)-5-[3-[(3 S)-4-(4-chloro-3-isopropyl-phenyl)-3-methyl-piperazin-1-yl]-3-oxo-propyl]-5-methyl-imidazolidine-2,4-dione]: the IC50 on rnADAMTS-5 (1-564-6H), on human ADAMTS-5, at human MMP14 and on human TACE was > 100 nM each time.

Consider `CCc1cc(N2CCN(C(=O)CCC3(CCC(=O)O)NC(=O)NC3=O)C[C@@H]2C)ccc1Cl` (stereo partly drawn) [Cpd 116, 3-[4-[3-[(3 S)-4-(4-chloro-3-ethyl-phenyl)-3-methyl-piperazin-1-yl]-3-oxo-propyl]-2,5-dioxo-imidazolidin-4-yl]propanoic acid], for which the IC50 at human ADAMTS-5, at human MMP14 and on human TACE was > 100 nM throughout.

As for `CCc1cc(N2CCN(C(=O)CCC3(CC(=O)O)NC(=O)NC3=O)C[C@@H]2C)ccc1Cl` (stereo partly drawn) [Cpd 98, 2-[4-[3-[(3 S)-4-(4-chloro-3-ethyl-phenyl)-3-methyl-piperazin-1-yl]-3-oxo-propyl]-2,5-dioxo-imidazolidin-4-yl]acetic acid], the half-inhibitory concentration (IC50) at human ADAMTS-5 is > 100 nM.
